Values quoted from earlier work in patent US20110294879A1, “METHOD OF TREATMENT OF FRAGILE X SYNDROME, DOWN'S SYNDROME, AUTISM AND RELATED DISORDERS” (XENOPORT, INC., priority 2010, published 2011).

Tested on: autistic children

Cc1nc2n(c(=O)c1CCN1CCC(c3noc4cc(F)ccc34)CC1)CCCC2 [risperidone]
adverse events: weight gain, increased appetite, fatigue, drowsiness, dizziness, and drooling
